Values quoted from earlier work, collected in patent US4748177A, “Guanine derivatives” (Warner-Lambert Company, priority 1985, dated 1988).

Test system: PNP
Details: Biochem. Pharm., 31 (2), 163 (1982); cited from earlier work

## Nc1nc2nc(N)[nH]c2c(=O)[nH]1 [8-Aminoguanine]
  PNP-activity: PNP-activity
